Our source for the IC50 values is publication PMC12138102 (Acta Pharmaceutica Sinica. B, 2025).

Amino acid sequences for entries named in this document (tags omitted). Residues count along the entry.
UniProt P06276, 29-602: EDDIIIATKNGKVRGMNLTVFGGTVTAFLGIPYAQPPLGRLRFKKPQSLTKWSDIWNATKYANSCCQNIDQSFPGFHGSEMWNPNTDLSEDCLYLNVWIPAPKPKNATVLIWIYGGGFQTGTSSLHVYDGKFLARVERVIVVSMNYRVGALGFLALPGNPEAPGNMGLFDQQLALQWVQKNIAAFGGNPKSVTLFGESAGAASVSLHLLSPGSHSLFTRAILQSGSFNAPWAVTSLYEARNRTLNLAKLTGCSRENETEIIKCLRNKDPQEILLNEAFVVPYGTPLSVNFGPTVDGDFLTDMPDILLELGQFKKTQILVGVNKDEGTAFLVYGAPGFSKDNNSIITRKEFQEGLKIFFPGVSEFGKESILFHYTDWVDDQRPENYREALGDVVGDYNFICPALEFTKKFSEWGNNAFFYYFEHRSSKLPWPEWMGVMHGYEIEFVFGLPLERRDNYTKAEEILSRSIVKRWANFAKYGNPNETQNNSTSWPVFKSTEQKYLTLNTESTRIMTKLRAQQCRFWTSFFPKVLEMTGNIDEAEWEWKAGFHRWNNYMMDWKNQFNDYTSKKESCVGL

This experiment addresses huBuChE (Homo sapiens, UniProt P06276). In words: BuChE inhibition, Ellman's assay. The note with it: read-out: IC50 ± SD huBuChE. The class given is biochemical.

On to `CCN(C)C(=O)Oc1cccc([C@H](C)N(C)C)c1` [Rivastigmine, reference compound], for which the IC50 (usually the midpoint of a concentration-inhibition curve) came out at 6.2 ± 0.21 µM.
